pKi: −log10 of the molar value.
How the values were obtained:
[1] = biological target: delta opioid receptor (δ2) (Homo sapiens, UniProt P41143); assay: [35S]GTPγS binding assay, affinity at the δ receptor; format: biochemical; conditions: read-out: calc Ki δ2; delta opioid receptor membranes
Mu opioid receptor = Mu opioid receptor (Homo sapiens, UniProt P35372); assay: [35S]GTPγS binding assay, affinity at the μ receptor; format: biochemical; conditions: read-out: calc Ki μ; mu opioid receptor membranes
kappa opioid receptor = kappa opioid receptor (Homo sapiens, UniProt P41145); assay: [35S]GTPγS binding assay, affinity at the k receptor; format: biochemical; conditions: read-out: calc Ki k; kappa opioid receptor membranes
[2] = biological target: human opioid receptor-like receptor (ORL-1) (Homo sapiens, UniProt P41146); assay: Functional [35S]GTPγS binding assay, nociceptin affinity at the ORL1 receptor

Row | Structure (SMILES) | pKi [1] | pKi (Mu opioid receptor) | pKi (kappa opioid receptor) | pKi [2]
1 | CC(=O)N1CN(c2ccccc2)C2(CCN(C3CCc4ccccc4C3)CC2)C1=O (stereo not drawn) | 5.46 | 7.42 | 6.44 | 7.77
2 | O=C1NCN(c2ccccc2)C12CCN(Cc1ccco1)CC2 | < 5.00 | 6.77 | 6.02 | 6.11
3 | O=C1NCN(c2ccccc2)C12CCN(C1CCc3ccccc3C1)CC2 (stereo not drawn) [8-[1,2,3,4tetrahydronaphthyl]-1-phenyl-1,3,8-triazospiro[4.5]decan-4-one] | 5.35 | 7.70 | 6.54 | 7.63
